Experimental data: patent US5854388A, “Angiotensin IV peptides and receptor” (Washington State University Research Foundation, priority 1994, dated 1998)

Protein sequences, listed by entry. Tags and fused reporters are not part of them. Residues count along the entry.
UniProt H0VNM7, 1-1025: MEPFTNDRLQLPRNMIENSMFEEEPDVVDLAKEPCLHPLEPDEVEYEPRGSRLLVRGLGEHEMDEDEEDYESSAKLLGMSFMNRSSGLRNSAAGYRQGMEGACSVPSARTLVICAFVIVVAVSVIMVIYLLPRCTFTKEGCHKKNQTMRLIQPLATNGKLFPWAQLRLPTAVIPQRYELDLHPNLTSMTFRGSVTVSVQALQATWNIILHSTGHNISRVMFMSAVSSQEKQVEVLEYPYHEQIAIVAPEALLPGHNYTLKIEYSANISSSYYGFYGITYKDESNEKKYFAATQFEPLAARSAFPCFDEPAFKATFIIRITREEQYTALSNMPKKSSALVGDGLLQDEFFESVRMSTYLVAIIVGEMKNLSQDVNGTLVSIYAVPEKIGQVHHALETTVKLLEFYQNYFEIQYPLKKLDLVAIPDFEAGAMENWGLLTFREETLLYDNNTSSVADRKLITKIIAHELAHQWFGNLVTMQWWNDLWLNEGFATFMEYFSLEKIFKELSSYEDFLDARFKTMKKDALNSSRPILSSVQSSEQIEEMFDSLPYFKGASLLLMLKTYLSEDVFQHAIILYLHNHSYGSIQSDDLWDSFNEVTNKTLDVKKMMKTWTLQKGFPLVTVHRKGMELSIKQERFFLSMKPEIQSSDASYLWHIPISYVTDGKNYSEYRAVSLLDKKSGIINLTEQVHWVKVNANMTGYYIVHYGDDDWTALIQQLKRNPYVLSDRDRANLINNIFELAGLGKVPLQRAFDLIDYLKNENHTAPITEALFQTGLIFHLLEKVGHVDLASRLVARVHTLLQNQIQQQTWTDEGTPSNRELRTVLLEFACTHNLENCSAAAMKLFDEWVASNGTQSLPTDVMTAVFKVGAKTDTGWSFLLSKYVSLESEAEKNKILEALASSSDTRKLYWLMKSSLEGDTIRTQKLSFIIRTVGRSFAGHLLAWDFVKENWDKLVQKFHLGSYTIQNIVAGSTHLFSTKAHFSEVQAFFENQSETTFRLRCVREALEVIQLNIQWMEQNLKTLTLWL
UniProt F1N1Q8, 1-1022: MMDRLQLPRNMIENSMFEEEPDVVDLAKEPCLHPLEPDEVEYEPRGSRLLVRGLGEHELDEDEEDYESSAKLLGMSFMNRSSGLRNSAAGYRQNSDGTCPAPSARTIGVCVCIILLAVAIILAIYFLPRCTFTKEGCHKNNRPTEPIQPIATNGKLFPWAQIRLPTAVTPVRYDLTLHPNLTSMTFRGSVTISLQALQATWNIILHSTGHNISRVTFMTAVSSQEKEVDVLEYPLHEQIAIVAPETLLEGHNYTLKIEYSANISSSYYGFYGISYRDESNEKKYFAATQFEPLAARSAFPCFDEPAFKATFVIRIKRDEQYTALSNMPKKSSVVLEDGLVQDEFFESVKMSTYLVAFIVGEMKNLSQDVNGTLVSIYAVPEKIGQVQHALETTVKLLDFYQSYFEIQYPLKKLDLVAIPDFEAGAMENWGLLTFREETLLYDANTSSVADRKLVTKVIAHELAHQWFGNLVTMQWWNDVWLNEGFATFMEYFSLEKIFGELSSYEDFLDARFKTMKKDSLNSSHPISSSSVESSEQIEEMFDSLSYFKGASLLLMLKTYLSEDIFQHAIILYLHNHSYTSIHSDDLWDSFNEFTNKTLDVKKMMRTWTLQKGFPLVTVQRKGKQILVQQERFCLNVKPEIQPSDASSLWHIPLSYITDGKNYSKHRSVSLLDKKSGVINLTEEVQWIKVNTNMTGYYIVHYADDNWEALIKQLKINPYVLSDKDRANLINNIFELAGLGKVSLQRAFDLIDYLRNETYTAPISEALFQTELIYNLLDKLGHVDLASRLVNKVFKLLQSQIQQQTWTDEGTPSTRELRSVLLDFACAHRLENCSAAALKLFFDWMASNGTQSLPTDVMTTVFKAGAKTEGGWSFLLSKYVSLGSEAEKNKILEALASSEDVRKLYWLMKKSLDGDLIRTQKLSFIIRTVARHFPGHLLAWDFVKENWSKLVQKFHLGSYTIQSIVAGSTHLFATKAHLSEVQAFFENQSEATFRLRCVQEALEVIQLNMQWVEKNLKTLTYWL

Tests used:
[1] = target: AT4 receptor (Cavia porcellus, UniProt H0VNM7); test: 125I-AIV binding and competition, guinea pig hippocampus membranes; conditions: competition of 0.6 nM 125I-AIV
[2] = target: AT4 receptor (Bos taurus, UniProt F1N1Q8); test: 125I-AIV binding and competition, solubilized bovine adrenal cortical receptor
[3] = test system: AT2 receptors; test: Autoradiography of 125I-Sar1,Ile8-AII binding in guinea pig brain; conditions: 100 nM competitor, FIG. 3
[4] = test system: rats; test: Passive avoidance conditioning after icv injection; format: in vivo, rat

## CC[C@H](C)[C@H](NC(=O)[C@H](Cc1ccc(O)cc1)NC(=O)[C@@H](N)C(C)C)C(=O)O
[1]
  Ki: > 1000 nM

## CCCCCCC(=O)N[C@@H](Cc1ccc(O)cc1)C(=O)N[C@H](C(=O)O)[C@@H](C)CC
[2]; competition of 125I-AIV binding
  Ki: 19.6 nM

## CC[C@H](C)[C@H](NC(=O)[C@H](Cc1ccc(O)cc1)NC(=O)[C@@H](NC(=O)[C@H](CCCNC(=N)N)NC(=O)[C@@H](N)CC(=O)O)C(C)C)C(=O)N[C@@H](Cc1cnc[nH]1)C(=O)N1CCC[C@H]1C(=O)N[C@@H](Cc1ccccc1)C(=O)O
[3]
  inhibition of 125I-Sar1,Ile8-AII binding by non-labeled competitor: specifically inhibited

## CC(C)[C@H](N)CN[C@@H](Cc1ccc(O)cc1)C(=O)N[C@H](CN[C@@H](Cc1c[nH]cn1)C(=O)N1CCC[C@H]1C(=O)N[C@@H](Cc1ccccc1)C(=O)O)C(C)C
[4]
  passive avoidance latency / cognitive effect (in words): completely blocks the learning and/or retrieval of the passive avoidance task

## CC[C@H](C)[C@H](NC(=O)[C@H](Cc1ccc(O)cc1)NC(=O)[C@@H](NC(=O)CNC)C(C)C)C(=O)N[C@@H](Cc1cnc[nH]1)C(=O)N1CCC[C@H]1C(=O)N[C@@H](Cc1ccccc1)C(=O)O
[2]
  times less effective than AIV in competing binding: approximately 100 times
